# Experimental data reported in PubChem BioAssay AID977624 (Broad Institute, 2014).
# Fewer than 10 of roughly 1,800 compounds were called active. Listed are the inconclusive results; actives and inactives stand elsewhere.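 How the source made its calls: active means compound lowering the normal-ribosome reporter at least twice as much as the humanized-ribosome reporter, growth loss under a set limit; inconclusive means no clear call, values can overlap the other calls; inactive means the rest.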
# Assay: growth inhibition of wild-type GFP E. coli, dose response, h34 mutant RFP, cherry-pick (AID 977624)
# Conditions: E. coli wild-type GFP strain growth, fluorescence, 24 h; at 50 µM (top of the series)
row,Compound,"activity change, negative = inhibition"
1,COc1ccc(N)c([N+](=O)[O-])c1[N+](=O)[O-],inconclusive: -21.9
